Consider five compounds from US11149018B2, “Substituted N-arylethyl-2-aminoquinoline-4-carboxamides and use thereof” (Bayer Aktiengesellschaft, priority 2017, dated 2021).

The chains behind the UniProt entries cited, without tags or fusion partners. Where a name states a change or a piece, a line headed by the entry shows the natural chain unless it says otherwise.
UniProt P43088: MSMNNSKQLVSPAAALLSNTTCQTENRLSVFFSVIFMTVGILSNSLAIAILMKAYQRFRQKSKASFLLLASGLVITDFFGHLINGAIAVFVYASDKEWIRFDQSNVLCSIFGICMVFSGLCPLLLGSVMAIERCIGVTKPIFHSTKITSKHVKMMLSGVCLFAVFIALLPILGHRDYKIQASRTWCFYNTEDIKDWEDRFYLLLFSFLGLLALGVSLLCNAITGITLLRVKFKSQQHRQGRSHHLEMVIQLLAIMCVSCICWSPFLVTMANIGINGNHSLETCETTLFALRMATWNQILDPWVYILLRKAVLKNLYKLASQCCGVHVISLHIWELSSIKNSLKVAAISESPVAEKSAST

Where two headings read alike, the source gives them in different places.

This assay deals with FP receptor (Homo sapiens (Human), UniProt P43088). Put plainly: In vitro test of inhibition of human FP receptor activity (PGF2α-induced calcium flux in FP-expressing CHEM1 cells). Format: cell-based. As for the experimental part: B-1. In Vitro Test of Inhibition of Human FP Receptor Activity
For the characterization of test substances in respect of FP antagonism, PGF2α-induced calcium flux in FP-expressing CHEM1 cells (Millipore, HTS093C) was used.
10 μl of the prediluted substance solution are added to the Fluo-8-laden cells and incubated at 37° C., 5% CO2 for 10 minutes. The FP receptor is activated by adding 40 μl of 2 nM (final concentration) PGF2α in calcium-free Tyrode, 2 mM CaCl2, 0.002% SmartBlock, and the calcium flux is determined by measuring the fluorescence at ex. 470 nm/[…].
Table 1 below lists the IC50 values from this assay for individual working examples of the invention (some as mean values from multiple independent individual determinations): […]

[1] abbreviates: PGF2α 2 nM, calcium flux, CHEM1 cells, some mean values of multiple determinations.

For the compound `Cc1c(N2CCCC(F)(F)C2)nc2ccc(Br)cc2c1C(=O)NCC(CCC(=O)O)c1ccccc1OC(F)(F)F` (racemic) [Example 132, (+/−)-5-({[6-Bromo-2-(3,3-difluoropiperidin-1-yl)-3-methylquinolin-4-yl]carbonyl}amino)-4-[2-(trifluoromethoxy)phenyl]pentanoic acid], under setting [1], the IC50 – broadly, the concentration that inhibits the measured activity by half – was 3.1 nM. As for `Cc1c(N2CCCCCC2)nc2ccc(Br)cc2c1C(=O)NCC(CCC(=O)O)c1c(F)ccc(F)c1Cl` (racemic) [Example 159, (+/−)-5-({[2-(Azepan-1-yl)-6-bromo-3-methylquinolin-4-yl]carbonyl}amino)-4-(2-chloro-3,6-difluorophenyl)pentanoic acid], the half-inhibitory concentration (IC50) under setting [1] amounted to 3.1 nM. Regarding `Cc1c(N2CCCCC2)nc2ccc(Br)cc2c1C(=O)NCC(CCC(=O)O)c1c(F)cccc1F` (single isomer, unassigned; (-)) [Example 246, (−)-5-({[6-Bromo-3-methyl-2-(piperidin-1-yl)quinolin-4-yl]carbonyl}amino)-4-(2,6-difluorophenyl)pentanoic acid], the IC50 under setting [1] was 3.1 nM. Turning to “(−)-5-[({6-Bromo-3-methyl-2-[(^2H10)piperidin-1-yl]quinolin-4-yl}carbonyl)amino]-4-(2-chloro-3,6-difluorophenyl)pentanoic acid [Example 274]”, the IC50 was found to be 0.73 nM. Consider “(−)-5-[({6-Bromo-3-methyl-2-[(^2H10)piperidin-1-yl]quinolin-4-yl}carbonyl)amino]-4-(2-chlorophenyl)pentanoic acid [Example 268]”, for which the IC50 came to 3.1 nM.
